Apparent affinities of Ab-14 variants for a coronavirus HR2 peptide

The target is the same throughout: PDVDLGDISGINAS, from the HR2 region of SARS-CoV-2 spike.

Parent scFv Ab-14: VH joined to VL by three GGGGS repeats. Changes lie in the light chain CDRs alone.
VH: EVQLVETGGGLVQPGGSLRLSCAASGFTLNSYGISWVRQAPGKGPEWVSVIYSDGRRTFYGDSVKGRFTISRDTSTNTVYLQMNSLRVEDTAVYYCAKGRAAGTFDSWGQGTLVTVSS
VL: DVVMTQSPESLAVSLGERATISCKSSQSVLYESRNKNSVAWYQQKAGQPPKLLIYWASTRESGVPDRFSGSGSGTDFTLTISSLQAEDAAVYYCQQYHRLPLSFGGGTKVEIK

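The starting antibody came from a phage panning campaign against this peptide. Designed CDR sequences, proposed from the first random library and measured here. Several design methods are mixed in this list. In AlphaSeq, yeast of one mating type display the scFv and yeast of the other type display the target. Mating (16 h, 30 °C) was followed by selection of diploids and sequencing of their barcodes. The ratio of observed to expected reads was calibrated, replicate by replicate, on BCL2-family standards whose Kd was known from biolayer interferometry. There are six technical replicates.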

Each variant is given by its three light chain CDRs, as the data file delimits them; those of the parent are KSSQSVLYESRNKNSVA, WASTRES, QQYHRLPLS. Variants here have at most six changes. Each Kd is an estimate from the mating assay, the geometric mean of the replicates in which the pair was seen; lower is stronger. Where no diploid with the target was found in any replicate, the entry reads "nd": below detection, most likely a poor binder, though not proof of it. As a blank, each scFv also met three strains without target: over all light chain designs, 4% of these pairings were detected, typically at 430 nM and seldom below 38 nM.

* KLMQSVWYESRNKNSVA / NASTRES / QQYHRLPLS: 740 pM (6 of 6 replicates)
* KSSQSWLYESRNKNLVA / GASTREN / QQYHRLPLS: 17 nM (6 of 6 replicates)
* KFSQSYLYESRNKNSVA / HASTRES / QQYHRLPLS: 2.0 nM (6 of 6 replicates)
* KSSQSWLYESRNKNSVA / GASTREM / QQYHRLPLS: 630 pM (6 of 6 replicates)
* KSSQEVLYESRNKNSVA / KASTRES / QQYHRLPLS: 12 nM (6 of 6 replicates)
* KSSQSELYESRNKNSVA / GASTRES / QQYVRLPLS: 1.9 nM (6 of 6 replicates)
* KLSQSFLYESRNKNSVA / NASTREQ / QQYHRLPLS: 380 pM (6 of 6 replicates)
* KLEQSTLYESRNKNSVA / LASTRES / QQYHRLPLS: 18 nM (6 of 6 replicates)
* KLDQSVLYESRNKNSVA / DASTRES / QQYHRLPLS: 350 pM (6 of 6 replicates)
* KLSGSHLYESRNKNSVA / NASTRES / QQYHRLPLS: 470 pM (6 of 6 replicates)
* KVSQSDLYESRNKNSVA / EASTRES / QQYHRLPLS: 410 pM (6 of 6 replicates)
* KLSGSWLYESRNKNAVA / NASTRES / QQYHRLPLS: 1.4 nM (6 of 6 replicates)
* KALQSVLYESRRKNSVA / HASTRED / QQYHRLPLS: 150 nM (6 of 6 replicates)
* KSIQSVLYESRNKNSVA / WASTREM / QQYHGLPLS: nd (0 of 6 replicates)
* KSDQGGLYESRNKNSVA / GASTRES / QQYHRLPLS: 730 pM (6 of 6 replicates)
* KLQQSSLYESRNKNSVA / NASTRCS / QQYHRLPLS: 510 pM (6 of 6 replicates)
* KLSDSVLLESRTKNSVA / NASTRES / QQYHRLPLS: 1.6 nM (6 of 6 replicates)
* KSSQSVDYESRNNNSVA / GGSTRIS / QQYHRLPLS: 2.6 nM (6 of 6 replicates)
* KLSMSNLYESRNKNSVA / NASTRES / QQYHRLPLS: 1.0 nM (6 of 6 replicates)
* KSSQSVLYEYDNKNSVA / WASTRES / QQYHSLPLS: 47 nM (3 of 6 replicates)
* KSSSSVLYESNNKNSVA / HASTRED / QQYHRLPLS: 2.2 nM (6 of 6 replicates)
* KSSQSVLYESRNKNSVA / WASTREK / QQYHRLVLS: 380 nM (3 of 6 replicates)
* KVSQSVLYEDRNKNSVA / NASTRMS / QQYHRLPLS: 620 pM (6 of 6 replicates)
* KVQQSVPYESRNKNSVA / NASTRMS / QQYHRLPLS: 960 pM (6 of 6 replicates)
* KLSISYLEESRNKNSVA / EASTRES / QQYHRLPLS: 890 pM (6 of 6 replicates)
* KSSQAVLYESRNKNSVA / EASTRES / QQYHRLPLS: 1.7 nM (6 of 6 replicates)
* KSSPSVLYESPNKNSVA / NASTRMS / QQYHRLPLS: 970 pM (6 of 6 replicates)
* KSSISYLYESENKNSVA / AASLRES / QQYHRLPLS: 47 nM (6 of 6 replicates)
* KIQQSMLYESRNKNSVA / NASTREE / QQYHRLPLM: 460 pM (6 of 6 replicates)
* KSSQSVLLQSRNKNSVA / DASTRES / QQYHRLPLS: 2.4 nM (6 of 6 replicates)
* KSSGSVLYESMNKNSVA / DATTRES / QQYMRLPLS: 680 pM (6 of 6 replicates)
* KLPQSVLYESRNKNSVA / HASTRED / QQYHQLPLS: 730 pM (6 of 6 replicates)
* KSSISQLYASRMKNSVA / EASTRES / QQYHRLPLS: 3.6 nM (6 of 6 replicates)
* KFSQSVLYESRTKNQVA / NASTRES / QQYHRLPLS: 1.1 nM (6 of 6 replicates)
* KVQQSMLYESRNKNSVA / NASQRES / QQYHRLPLS: 540 pM (6 of 6 replicates)
* KLSQSCLYESRNKNSVA / NASTREQ / QQYHRLPLS: 430 pM (6 of 6 replicates)
* KVSQSVLYESRNKNSVA / NASTREV / QQYHRLPLS: 530 pM (6 of 6 replicates)
* KQSQSVLYESRNKNSVA / MGSTRES / QQYHRLPLS: 6.3 nM (6 of 6 replicates)
* KVRQSTLYESRNKNSVA / WASTRES / SQYHMLPLS: nd (0 of 6 replicates)
* KLSQSVGYESRNKNNVA / HASTRES / QQYHRLPLS: 430 pM (6 of 6 replicates)
* HSSGSVLYESRNGNSVA / NASTRES / QQYHRLPLS: 11 nM (6 of 6 replicates)
* KSSQSVLYESRDKNSVA / WASTRER / QQYHRLPLS: 33 nM (6 of 6 replicates)
* KMEQSELYESRNKNSVA / NASQRES / QQYHRLPLS: 2.2 nM (6 of 6 replicates)
* KSSQSWDYESRNKNSVA / GASTREN / QQYHRLPLS: 590 pM (6 of 6 replicates)

The closing 7 entries, repeated:

| CDR-L1 | CDR-L2 | CDR-L3 | apparent Kd | detected |
|---|---|---|---|---|
| KQSQSVLYESRNKNSVA | MGSTRES | QQYHRLPLS | 6.3 nM | 6/6 |
| KVRQSTLYESRNKNSVA | WASTRES | SQYHMLPLS | nd | 0/6 |
| KLSQSVGYESRNKNNVA | HASTRES | QQYHRLPLS | 430 pM | 6/6 |
| HSSGSVLYESRNGNSVA | NASTRES | QQYHRLPLS | 11 nM | 6/6 |
| KSSQSVLYESRDKNSVA | WASTRER | QQYHRLPLS | 33 nM | 6/6 |
| KMEQSELYESRNKNSVA | NASQRES | QQYHRLPLS | 2.2 nM | 6/6 |
| KSSQSWDYESRNKNSVA | GASTREN | QQYHRLPLS | 590 pM | 6/6 |

The authors' rule: three or more of the six replicates give a measured affinity, fewer mean a poor binder. Values of this round are not directly comparable with the first-round values of the same sequences. Of ten entries with the parent sequence, four were seen in most replicates (averages 2.2 nM to 240 nM), three in one and three in none, so single entries are noisy.

Source: Li et al. 2023 (doi:10.1038/s41467-023-39022-2), MIT Lincoln Laboratory and A-Alpha Bio; data file from the FLAb repository.